Consider 11 compounds from US10208081B2, “Bile acid derivatives as FXR/TGR5 agonists and methods of use thereof” (Enanta Pharmaceuticals, Inc., priority 2014, dated 2019).

Sequences of proteins named here, by UniProt entry; tags and fusion partners are left off.
UniProt Q96RI1, whole entry: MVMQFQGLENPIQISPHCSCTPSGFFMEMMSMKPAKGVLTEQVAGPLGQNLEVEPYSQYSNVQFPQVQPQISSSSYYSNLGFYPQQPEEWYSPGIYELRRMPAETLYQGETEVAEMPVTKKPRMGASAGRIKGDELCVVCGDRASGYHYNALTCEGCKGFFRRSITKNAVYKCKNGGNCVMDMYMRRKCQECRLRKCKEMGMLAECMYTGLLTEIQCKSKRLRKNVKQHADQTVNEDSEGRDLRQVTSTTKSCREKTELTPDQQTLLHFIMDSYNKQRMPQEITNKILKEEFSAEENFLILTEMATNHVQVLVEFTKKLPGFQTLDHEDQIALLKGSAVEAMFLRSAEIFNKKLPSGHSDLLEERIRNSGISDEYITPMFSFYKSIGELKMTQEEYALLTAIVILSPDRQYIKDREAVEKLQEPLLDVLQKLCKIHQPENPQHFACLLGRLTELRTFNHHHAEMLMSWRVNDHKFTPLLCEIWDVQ

Structures are written as SMILES. A value given as a limit tells only on which side of the number the result lay.

In general, EC50 refers to the concentration that produces a half-maximal response. A low value points to greater potency.

The assay deals with human FXR (NR1H4) (Homo sapiens (Human), UniProt Q96RI1). The assay is described as follows: Human FXR (NR1H4) Assay (Gal4 promoter driven luciferase reporter, Indigo Bioscience kit IB00601). The conditions noted are these: for Efficacy (%): efficacy normalized to CDCA set as 100%; for EC50: potency ranges. It is filed as cell-based. Background: In a reporter assay the amount or activity of a reporter protein is the signal.

Regarding `CC[C@H]1[C@@H](O)[C@@H]2[C@H](CC[C@]3(C)[C@@H]([C@H](C)CCNC(=O)NS(=O)(=O)c4ccccc4Cl)CC[C@@H]23)[C@@]2(C)CC[C@@H](O)C[C@@H]12`, the “Efficacy (%)” value was 244% and the 50% effective concentration (EC50) is 100 to 1000 nM.
For `CC[C@H]1[C@@H](O)[C@@H]2[C@H](CC[C@]3(C)[C@@H]([C@H](C)CCN(C)C(=O)NS(=O)(=O)C4CCCCC4)CC[C@@H]23)[C@@]2(C)CC[C@@H](O)C[C@@H]12`, in that order: 217% and 100 to 1000 nM.
In the same order, the values of `CC[C@H]1[C@@H](O)[C@@H]2[C@H](CC[C@]3(C)[C@@H]([C@H](C)CNC(=O)NS(=O)(=O)N4CCCCC4)CC[C@@H]23)[C@@]2(C)CC[C@@H](O)C[C@@H]12` are 343% and 100 to 1000 nM.
In the same order, the values of `CC[C@H]1[C@@H](O)[C@@H]2[C@H](CC[C@]3(C)[C@@H]([C@H](C)CNC(=O)NS(=O)(=O)c4ccc(OC(F)(F)F)cc4)CC[C@@H]23)[C@@]2(C)CC[C@@H](O)C[C@@H]12` are 219% and below 100 nM.
Turning to `CC[C@H]1[C@@H](O)[C@@H]2[C@H](CC[C@]3(C)[C@@H]([C@H](C)CNC(=O)NS(=O)(=O)C4CCCCC4)CC[C@@H]23)[C@@]2(C)CC[C@@H](O)C[C@@H]12`, the “Efficacy (%)” value came to 350% and the EC50 lay within 100 to 1000 nM.
In the same order, the values of `CC[C@H]1[C@@H](O)[C@@H]2[C@H](CC[C@]3(C)[C@@H]([C@H](C)CCNC(=O)NS(=O)(=O)NC(C)(C)C)CC[C@@H]23)[C@@]2(C)CC[C@@H](O)C[C@@H]12` are 343% and 100 to 1000 nM.
In the same order, the values of `CC[C@H]1[C@@H](O)[C@@H]2[C@H](CC[C@]3(C)[C@@H]([C@H](C)C[C@H](C)NC(=O)NS(=O)(=O)C4CCCCC4)CC[C@@H]23)[C@@]2(C)CC[C@@H](O)C[C@@H]12` are 178% and 1000 to 10000 nM.
For `CC[C@H]1[C@@H](O)[C@@H]2[C@H](CC[C@]3(C)[C@@H]([C@H](C)CCN(C)C(=O)NS(=O)(=O)c4ccc5ccccc5c4)CC[C@@H]23)[C@@]2(C)CC[C@@H](O)C[C@@H]12`, in that order: 228% and 100 to 1000 nM.
As for `CC[C@H]1[C@@H](O)[C@@H]2[C@H](CC[C@]3(C)[C@@H]([C@H](C)CNC(=O)NS(=O)(=O)N4CCOCC4)CC[C@@H]23)[C@@]2(C)CC[C@@H](O)C[C@@H]12`, the “Efficacy (%)” value was found to be 264% and the EC50 was in the range of 1000 to 10000 nM.
For `CC[C@H]1[C@@H](O)[C@@H]2[C@H](CC[C@]3(C)[C@@H]([C@H](C)CCNC(=O)NS(=O)(=O)c4cccc5ccccc45)CC[C@@H]23)[C@@]2(C)CC[C@@H](O)C[C@@H]12`, in that order: 231% and below 100 nM.
For `CC[C@H]1[C@@H](O)[C@@H]2[C@H](CC[C@]3(C)[C@@H]([C@H](C)CNC(=O)NS(=O)(=O)c4ccc(C(C)(C)C)cc4)CC[C@@H]23)[C@@]2(C)CC[C@@H](O)C[C@@H]12`, in that order: 270% and below 100 nM.
